Two compounds from PubChem BioAssay AID540267 (National Center for Advancing Translational Sciences (NCATS), 2011) can be followed below.

The list shows a part of the results, in another mix than the full data. Activity calls are given as the source filed them. No stated cut-off is given here; in the data, active means activity change below about -80%; inconclusive means between about -30% and that limit; inactive means weaker than that.
On the % scale 0 is the no-effect control and ±100 the full control effect.

This assay in a line: Small Molecules that selectively kill Giardia lamblia: qHTS.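 Further: parasites exposed to compound for two days anaerobically before the ATP read.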 As to conditions: Giardia lamblia trophozoite viability; at 7.66 µM; hits give low values. The source says:
Giardia lamblia is a human pathogen afflicting impoverished nations, and the most common cause of outbreaks of diarrhea in the United States. Giardia has been classified by the CDC as a category B bioterrorism organism. The favored anti giardiasis drugs in the US are metronidazole or tinidazole, compounds that have undesirable side effects. Moreover, increasing resistance to drug regimes and recurrence are a concern. It is thus clear that alternative drug treatments are needed.
In a collaboration between the University of Maryland, College Park and the NIH Chemical Genomics Center, a bioluminescence Giardia viability assay based on the trophozoites' ATP content was developed. This assay is suitable for high throughput screening, and miniaturized the assay for compound screening in 1536-well plates. The goal of the project is to screen the Molecular Libraries Small Molecule Repository (MLSMR) for compounds that selectively kill Giardia trophozoites.
NIH Chemical Genomics Center [NCGC]
NIH Molecular Libraries Probe Centers Network [MLPCN]
Assay Submitter (PI): Osnat Herzberg, University of Maryland, College Park, MD.
1. Dispense 2 ul/well media
2. Dispense 23 nl/well compounds
3. Dispense 4 ul/well Giardia trophozoites at a concentration of 100 cells/well
4. […]
5. Dispense 4 ul/well ATPLite 1-Step Luminescence assay kit […]
7. Read luminescence signal on ViewLux plate reader
Background: Quantitative high-throughput screening tests each substance at several concentrations.
Consider `CCC(=O)N(c1ccccc1)C1(COC)CCN(CCc2cccs2)CC1`, for which the activity change was inactive: 4.86%. The result for `CCC(=O)N(c1ccccc1)C1(COC)CCN(CCn2nnn(CC)c2=O)CC1` reads inactive: 32.2%.
